Assay results: PubChem BioAssay (EPA / NIEHS)
The list shows a part of the results, in another mix than the full data. Results filed as inconclusive are left out. Active and inactive are the calls of the source. How the source made its calls, unless noted: active means hit-call score of the fitted dose curve at least 0.9, where 1 is the maximum; inactive means score below 0.9.

The chains behind the UniProt entries cited, without tags or fusion partners.
UniProt P01375, whole entry: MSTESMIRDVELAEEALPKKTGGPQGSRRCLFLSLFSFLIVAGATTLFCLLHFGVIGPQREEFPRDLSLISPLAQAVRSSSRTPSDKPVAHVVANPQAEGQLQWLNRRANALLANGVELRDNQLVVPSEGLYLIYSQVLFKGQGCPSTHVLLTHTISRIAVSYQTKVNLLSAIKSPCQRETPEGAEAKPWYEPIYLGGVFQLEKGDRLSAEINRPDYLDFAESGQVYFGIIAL

Columns and labels:
[1] = BSK_BT_PBMCCytotoxicity: PBMC Cytotoxicity Assessment in the BioMAP Diversity Plus: BT Assay (AID 2284225); settings: primary human B cells with PBMC;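 further: PBMC viability measured by Alamar Blue dye reduction fluorescence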
Summary of the method: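 75,000 cells/well; cpd 1 h → SEB + TSST-1 (20 ng/mL final each) → 90 h → Alamar Blue 6 h → fluor. 546/580 nm. DMSO = neg. control/baseline.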

[2] = read-out: Secreted IgG (sIgG), gene 3500; assay: BSK_BT_sIgG: BioMAP Diversity Plus: BT Assay for Secreted IgG (sIgG) Biomarker Activity (AID 2284226); settings: primary human B cells with PBMC
Summary of the method: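 Secreted IgG from a human primary B cell–PBMC co-culture was measured by ELISA 24 hours after dosing, with DMSO defining baseline activity.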

[3] = BSK_BT_Bcell_Proliferation: Viability Assessment in the BioMAP Diversity Plus: BT Assay for B cell Proliferation (AID 2284227); settings: primary human B cells with PBMC
Summary of the method: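 Using a human primary B cell–PBMC co-culture, the assay measures total protein by sulforhodamine B absorbance as a gauge of proliferation after 72 h. Analysis followed the positive fitting direction with DMSO as baseline.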

[4] = read-out: Interleukin 6 (IL6), IL6 (gene 3569); assay: BSK_BT_xIL6: BioMAP Diversity Plus: BT Assay for Interleukin 6 (IL6) Biomarker Activity (AID 2284228); settings: primary human B cells with PBMC
Protocol: (§1) BSK_BT is a cell-based, multiplexed-readout assay that uses B cell and peripheral blood mononuclear cells, a human vascular primary cell co-culture, with measurements taken at 24 hours after chemical dosing in a microplate: 96-well plate.BSK_BT_xIL6 is an assay component measured in the BSK_BT assay. It measures secreted IL-6 related to regulation of gene expression using LumineX xMAP technology.Data from the assay component BSK_BT_xIL6 was analyzed at the endpoint, BSK_BT_xIL6, in the positive analysis fitting direction relative to DMSO as the negative control and baseline of activity. Using a type of cytokine quantitation reporter, gain or loss-of-signal activity can be used to understand protein changes. […]
(§2) The levels of cell surface (or secreted, indicated by the prefix "s") biomarker endpoints were measured by ELISA. Overt cytotoxicity to cells in confluent adherent cultures (all systems other than the BT system) was assessed by measuring total protein levels using sulforhodamine B (SRB) staining in parallel cultures at the time of biomarker measurements, indicated as SRB endpoints. For proliferation assays for adherent cell types, individual cell types are cultured at sub-confluence and relative cell numbers quantified by SRB staining at time points optimized for each system (48 h: 3C and CASM3C systems; 72 h: BT and HDF3CGF systems; 96 h: SAg system). […] Plates were read after 6 h.

[5] = read-out: Interleukin 17A (IL17A), IL17A (gene 3605); assay: BSK_BT_xIL17A: BioMAP Diversity Plus: BT Assay for Interleukin 17A (IL17A) Biomarker Activity (AID 2284229); settings: primary human B cells with PBMC
Summary of the method: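 Co-culture of human B cells and PBMC, dosed for 24 h in 96-well format. Secreted IL-17A measured with Luminex xMAP; gain-direction fitting against DMSO as baseline.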

[6] = read-out: Tumor necrosis factor (Homo sapiens) (UniProt P01375); assay: BSK_BT_xTNFa: BioMAP Diversity Plus: BT Assay for Tumor necrosis factor alpha (TNF-alpha) Biomarker Activity (AID 2284230); settings: primary human B cells with PBMC
Protocol: as §1, with “plate.BSK_BT_xTNFa” for “plate.BSK_BT_xIL6”, “of” for “measured in”, “TNF-alpha” for “IL-6”, “BSK_BT_xTNFa” for “BSK_BT_xIL6”, “BSK_BT_xTNFa,” for “BSK_BT_xIL6,”
as §2

[7] = read-out: Vascular cell adhesion molecule 1 (VCAM1), VCAM1 (gene 7412); assay: BSK_MyoF_VCAM1: BioMAP Diversity Plus: MyoF Assay for Vascular cell adhesion molecule 1 (VCAM1) Biomarker Activity (AID 2284231); settings: primary human lung fibroblasts
Summary of the method: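 Primary human lung fibroblasts (BioMAP MyoF system) dosed with chemical, VCAM-1 measured by ELISA 24 hours later. Fitted in the positive direction against DMSO; parallel SRB staining assessed cytotoxicity.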

[8] = read-out: Collagen I, COL1A1 (gene 1277); assay: BSK_MyoF_CollagenI: BioMAP Diversity Plus: MyoF Assay for Collagen I Biomarker Activity (AID 2284238); settings: primary human lung fibroblasts
Summary of the method: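 Primary human lung fibroblasts (MyoF system) treated 24 h; Collagen I quantified by ELISA and fitted in positive direction against DMSO. Parallel SRB total-protein staining assessed overt cytotoxicity.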

[9] = read-out: Collagen III, COL3A1 (gene 1281); assay: BSK_MyoF_CollagenIII: BioMAP Diversity Plus: MyoF Assay for Collagen III Biomarker Activity (AID 2284239); settings: primary human lung fibroblasts
Summary of the method: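 Primary human lung fibroblasts (BioMAP MyoF system) exposed 24 h. Collagen III measured by ELISA; positive-direction fit relative to DMSO.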

[10] = CCTE_Shafer_MEA_acute_LDH: CCTE's Lactate Dehydrogenase Assay for Cytotoxicity in the Neural Acute Assay, Shafer Lab (AID 2284086; active means hit-call score of the fitted dose curve at least 0.9, where 1 is the maximum;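 further: active means LDH release rises above DMSO vehicle level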)
Summary of the method: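 Released lactate dehydrogenase, read at 490 nm, indicated cytotoxicity after acute 40-min compound treatment of rat cortical neuron networks grown on 48-well MEA plates.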

Measured: outcome

CC(C)OP(OC(C)C)OC(C)C
inactive: [1] | [2] | [3] | [4] | [5] | [6] | [7] | [8] | [9]

O=[N+]([O-])c1ccccc1[N+](=O)[O-]
inactive: [10]
